The values that follow are results of earlier work, collected in patent publication US20040197321A1, “Composition and method to prevent or reduce diarrhea and steatorrhea in HIV patients” (priority 2002, published 2004).

The conditions of this data set: excipients, Table V; cited from earlier work.

What is called Aqueous Solubility is the concentration that dissolves in the medium under given conditions. Take “D-α-tocopheryl polyethylene glycol 1000 succinate [TPGS]”: the “Aqueous Solubility” value is listed as 200 mg/mL.
